Results as given in BindingDB's records for doi:10.1016/s0960-894x(02)00585-1 (Corvas International, 2002).

Molecular target: Prothrombin (Homo sapiens, UniProt P00734)
Experiment: In vitro inhibitory activity against human Thrombin (FIIa) cleavage of the chromogenic substrate

| Ki [nM] | Compound |
| --- | --- |
| 3570 | COc1cccc(S(=O)(=O)Nc2cccn(CC(=O)NCc3ccc4c(N)[nH]nc4c3)c2=O)c1 |
| 1590 | Cc1cnc(NCCc2ccccc2)c(=O)n1CC(=O)NCc1ccc2cn[nH]c2c1 |
